In patent publication US4707477A, “Treating and preventing agent for ischemic cardiac disease and arrhythmia” (priority 1985, dated 1987):
Where a name gives a salt, the structure may show the parent alone.

Assay: Acute toxicity, LD50, Wistar rat
Conditions: in vivo, po, male

Structure (SMILES): CCCC(=O)N1CCCN(c2nc(N)c3cc(OC)c(OC)cc3n2)CC1 [bunazosin hydrochloride]
- LD50: 980 mg/kg
